Apparent affinities of Ab-91 variants for a coronavirus HR2 peptide

From the AlphaSeq antibody data of Engelhart et al. 2022 (doi:10.1038/s41597-022-01779-4), copy in the FLAb collection.

The target is the same throughout: PDVDLGDISGINAS, from the HR2 region of SARS-CoV-2 spike.

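The parent was found by panning a naive human phage display library on the peptide. Variants in AAYL51 differ from the parent at up to three CDR positions; double and triple changes were sampled at random. AlphaSeq pools MATa yeast showing the antibodies with MATalpha yeast showing the peptide. Mating (16 h, 30 °C) was followed by selection of diploids and sequencing of their barcodes. Scores were corrected for input abundance and mapped to Kd with protein pairs of known affinity run in the same pool. The assay was run in three technical replicates.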

Parent scFv Ab-91: VL joined to VH by three GGGGS repeats. Changes lie in the heavy chain CDRs alone.
VL: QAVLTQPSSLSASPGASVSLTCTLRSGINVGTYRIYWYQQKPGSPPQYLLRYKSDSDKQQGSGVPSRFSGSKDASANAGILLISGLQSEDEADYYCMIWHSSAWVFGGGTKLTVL
VH: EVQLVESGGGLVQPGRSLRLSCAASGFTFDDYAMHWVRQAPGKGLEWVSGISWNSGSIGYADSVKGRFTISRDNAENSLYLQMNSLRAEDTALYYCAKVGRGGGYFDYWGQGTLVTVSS

The parent's heavy chain CDRs are GFTFDDYAMH, GISWNSGSIGYADSVK, VGRGGGYFDY; each variant's own CDRs replace them letter for letter. Numbers give log10(Kd / nM), so 0 is 1 nM and 3 is 1 µM. Smaller is tighter. The mean shown is taken over the replicates in which the pair was detected. "not detected" marks a missing value. The strain was present, yet no cells mated with the target were sequenced in any replicate, which points to weak or no binding. In this assay the parent's reference entry averaged 1.86; its copy inside this library read 0.88. Three control strains display no target. For library AAYL51, 21% of the pairings with them gave a signal, with a median of 4.54 and one signal in twenty below 3.26, so weak values seen in few replicates may be background.

CDR-H1,CDR-H2,CDR-H3,"mean, log10 nM",detected
GFTFDDYAMH,GISKNSGSIGYAGSVK,VGRGGGYFIY,not detected,0/3
GFTFDDYAMH,GISWNSGSIGYADSCN,VGRGGGYFDY,3.19,3/3
GFVFMDYAMH,GISWNSGSIGYADSVK,VGREGGYFDY,1.67,3/3
GFTWDDYAMH,GISWNSGSIGMADSVK,VGRGGQYFDY,4.81,2/3
MFTFDDYQMH,GIPWNSGSIGYADSVK,VGRGGGYFDY,not detected,0/3
GFTFDDYAYH,GISWNSGSIGYIDSVK,CGRGGGYFDY,not detected,0/3
GFTFDDYAMH,GISWNSGSIGYAGDVS,VGRGGGYFDY,2.60,3/3
GFTFDDNAMH,GISWNSGSIGYADSVK,VGREGGYWDY,3.18,3/3
GFTFNDYAMH,GISWNSGSIGYADSKK,VGRGGGYPDY,4.49,1/3
GFTFDDYAMH,GISWNIGSIGYTDSVK,VFRGGGYFDY,not detected,0/3
GFTFDDWAQH,GISWNSGSIGYADSVK,VGRGGRYFDY,not detected,0/3
GFTFDDYAMH,GISWNSLSITYADSVK,VGRGGGYFDY,3.67,2/3
GFTFDDFAMH,GIYWNSGSIGYADSVK,VGRGGGYFDY,not detected,0/3
GFTFDDYAMH,GISRNSGSIGYALSFK,VGRGGGYFDY,3.17,3/3
GFTFDDYAMH,GISWNSGSIGYAISWI,VGRGGGYFDY,4.15,1/3
GFTFDDYSMH,GISWNSGKCGYADSVK,VGRGGGYFDY,1.91,3/3
GFTFDDYAMH,GISWNSGSIGYLDSVP,VGRGGGYFDF,4.99,1/3
GFTFDDSAMH,GISWNSGSIGYADHVK,VGRGGGSFDY,not detected,0/3
GFTFTDYAMH,GISWNSGSIGNADSVK,VGRGGGCFDY,4.00,2/3
GFTMDDYAMH,GISRNSGSIGYADSVK,VCRGGGYFDY,2.62,3/3
GFTFDDRAMH,GIGWNSYSIGYADSVK,VGRGGGYFDY,5.27,1/3
TFTFDDYAMY,GISWNSGSIGYYDSVK,VGRGGGYFDY,4.97,1/3
GFTCDDYAMA,GISWNSGSIGLADSVK,VGRGGGYFDY,4.04,3/3
GFTFDDYAMH,GISWNSGSIGYPDSVK,VGRGGGSFDY,not detected,0/3
GFTFDDYALH,GISWNSGSIGYADCVK,VSRGGGYFDY,3.79,1/3
GFDFVDYAMH,GISWNSGSIGYTDSVK,VGRGGGYFDY,2.73,3/3
GFTFDFYAMH,GISWNDGSIPYADSVK,VGRGGGYFDY,5.58,3/3
GFTFDDYAMH,GISWNSGSIGYADSVP,VGRYGGYFDY,not detected,0/3
GFTFDDYAMH,GISWNSGSIYYADSVK,VGRGGVYEDY,1.51,1/3
GFTMDDYASH,GISWNSGSIGYADSVK,VGRGGGYFDY,5.27,1/3
GFTFDDYAMH,GISWNSGSIGYADSVK,IGRNGGYLDY,not detected,0/3
GFTFDDYAMR,GISWNSGSIGYADNVK,VGRGGGYFDY,not detected,0/3
GFTFDPYAMH,GICWNSGSIGYADSVK,VGRGGGYFIY,6.12,1/3
GFTFDDYAME,GISWFSGSIGYADSVK,VGRGGGYFDY,not detected,0/3
GFTFDDYAMH,GSSWNSGSIGYADSVK,VGRGGHHFDY,3.97,2/3
GFTFDDYAMH,GISWNSGSMGYADSVN,VGRGGGYFHY,0.79,3/3
GFTFDDYAMH,GISWNSHSIGYRDCVK,VGRGGGYFDY,2.88,2/3
GFVFDDYAMH,GISWNDGSIGYADSVK,QGRGGGYFDY,not detected,0/3
GFTFDDYAMH,GIAWNSGSIGYALSVK,VGRGGGYFPY,not detected,0/3
GFTFDDYAMH,GISWNSGSIGYSDSVK,VGRGGHYHDY,0.55,3/3
GFEFDDYAMH,LISWNSGSIGYADSVK,VGRGGGYGDY,4.94,1/3
GFTFDDYVMH,GISWNSGSIGYADSVL,VGRGGGYFDN,5.72,1/3
GVTFDDYAMH,GISWNSGDIGYADSVK,VGRGGPYFDY,not detected,0/3
GFTFDDYAMH,CISWNSGSIGYCCSVK,VGRGGGYFDY,not detected,0/3
GFTFDKYAMH,GISWNSGSINYADSVK,VQRGGGYFDY,4.71,2/3
GFTFDKYAMH,GISWNSGSIGFADSVK,VGRGRGYFDY,2.98,3/3
GFTFDDYALH,GISWNSGKIGYADSAK,VGRGGGYFDY,3.55,2/3
GFTFQDYAMH,GISWNSGSQGYADSVK,VGRGGGVFDY,4.06,1/3
GFTFDTYAMH,GISWNSGRIGYAMSVK,VGRGGGYFDY,3.97,2/3
GFEFDDPAMH,GISWNSGSIGYADSVK,VGNGGGYFDY,4.25,2/3
CFTFDDYAMH,GISPNSGSIGYADSVK,VGREGGYFDY,2.53,3/3
GFTFDDYAMH,GISWYSGSIGYADSVK,VGRGGGYQDV,4.51,1/3
GFTFDDYAMH,GPSWNSVPIGYADSVK,VGRGGGYFDY,5.31,2/3
GFTFDDYAMH,GISWNSGSIGYADSVK,VGGGGPCFDY,0.88,3/3
GFCFGDYAMH,GISWNSGSIGYADSVK,VGRGGGYFFY,not detected,0/3
GFTFDDYGMH,GISWNTGSIGYADSVK,VGRGGGYFDY,4.14,1/3
GFTHDDYAMH,GISWNSGSIGYAGSHK,VGRGGGYFDY,not detected,0/3
GFTFDDYAMH,GISWNSGSIGYADLVK,VGRWGGYFDM,1.99,3/3
GFTFDDYAMH,GISWNSGSIGYADSVG,VGRKGGYFDY,not detected,0/3
GFTFDDAAMH,GISWNSTSIGYADSVK,VGRGGGYFDH,4.26,3/3
GFTFDDYFMH,GISWNSGCIGYADSVC,VGRGGGYFDY,not detected,0/3
GFTFDDYAMH,GIFWNSGSIGYADSVK,FGRGGGYLDY,not detected,0/3
GFTFLDYAMH,GSSWNSGSIGYADSVK,VGRGGGYFSY,3.39,1/3
GFTFDDYAMH,GSSWNAGVIGYADSVK,VGRGGGYFDY,not detected,0/3
GFTFDAYAMH,GIDWNSGSIGYADSVK,VGRGGGYFDY,1.28,3/3
GFTFDDYAMH,NISWRSGSLGYADSVK,VGRGGGYFDY,not detected,0/3
GFTFDDYAMH,GISWNSGSIGYAWSVC,VHRGGGYFDY,not detected,0/3
GFTFDDYAMH,GISWNSSYIGYADSVK,VGRGGGYFDY,2.24,3/3
GFTFDDYAMH,GISWQSGSIGYADSVK,VGRGGALFDY,2.72,3/3
GFTIGDYAMH,GISWNSGSIGYADSVK,VGRGGGYFDA,not detected,0/3
GFTFDYYAMH,GISWNSGSMGYADSVE,VGRGGGYFDY,not detected,0/3
GFTFDDYAMH,GISWNSGSIGGADSSK,VIRGGGYFDY,not detected,0/3

Extract of 6 entries:

CDR-H1,CDR-H2,CDR-H3,"mean, log10 nM",detected
GFTFDDYAMH,GISWNSGSIGYADSVK,VGGGGPCFDY,0.88,3/3
GFTHDDYAMH,GISWNSGSIGYAGSHK,VGRGGGYFDY,not detected,0/3
GFTFLDYAMH,GSSWNSGSIGYADSVK,VGRGGGYFSY,3.39,1/3
GVTFDDYAMH,GISWNSGDIGYADSVK,VGRGGPYFDY,not detected,0/3
GFTFDDYAMH,GSSWNAGVIGYADSVK,VGRGGGYFDY,not detected,0/3
GFTFDFYAMH,GISWNDGSIPYADSVK,VGRGGGYFDY,5.58,3/3